Measured values reported in US20180012623A1, “Ionic Liquid, Lubricant, and Magnetic Recording Medium” (Dexerials Corporation, priority 2016, published 2018).

Assay: Solubility test of ionic liquids in Vertrel XF and n-hexane (visual observation)
Details: 25° C., ultrasonic 5 minutes, left 1 day; for Solubility, Fluorine-based solvent: Vertrel XF [CF3(CHF)2CF2CF3], 0.2 parts by mass added to 100 parts by mass; for Solubility, n-Hexane: 0.5 parts by mass added to 100 parts by mass
Procedure: To a predetermined amount of Vertrel XF or n-hexane, the ionic liquid was added. Ultrasonic waves were applied to the resultant mixture for 5 minutes, followed by leaving the mixture to stand for 1 day. The solubility was visually observed.
After applying ultrasonic waves to the resultant for 5 minutes, the resultant was left to stand for 1 day. Thereafter, the solubility was visually observed and evaluated based on the following evaluation criteria. […] Similarly, after applying ultrasonic waves to the resultant for 5 minutes, the resultant was left to stand for 1 day. Thereafter, the solubility was visually observed and evaluated based on the following evaluation criteria.
Note that, the solubility was visually observed, and it was judged as soluble when it was transparent. Moreover, it was judged as not soluble (insoluble) when it was opaque or insoluble components were observed.
The results are presented in Table 2. • [Evaluation Criteria]
• 0.2% by mass or greater:
Soluble with addition of 0.2 parts by mass • Less than 0.2% by mass:
Insoluble with addition of 0.2 parts by mass
<<n-Hexane>> • 0.5% by mass or greater:
Soluble with addition of 0.5 parts by mass • Less than 0.5% by mass:
Insoluble with addition of 0.5 parts by mass

[1] = listed as Comparative Example 5A

Substance | Solubility, Fluorine-based solvent | Solubility, Fluorine-based solvent (listed as Example 3A) [% by mass] | Solubility, n-Hexane | Solubility, n-Hexane (listed as Example 3A) [% by mass] | Solubility, Fluorine-based solvent [1] | Solubility, n-Hexane [1] [% by mass] | Solubility, Fluorine-based solvent (listed as Example 1A) [% by mass] | Solubility, n-Hexane (listed as Example 1A) [% by mass]
nonafluorobutanesulfonic acid-1-octadecyl-2-undecylimidazolium [Ex. 3A] | ≥ 0.2% by mass | ≥ 0.2 | ≥ 0.5% by mass | ≥ 0.5 | – | – | – | –
nonafluorobutanesulfonic acid-1-octadecylimidazolium [1A, reference compound] | less than 0.2% by mass | – | less than 0.5% by mass | – | – | – | – | –
pentadecafluorooctanoic acid octadecyl ammonium [5A, reference compound] | less than 0.2% by mass | – | ≥ 0.5% by mass | – | less than 0.2 % by mass | ≥ 0.5 | – | –
nonafluorobutanesulfonic acid-1-dodecyl-2-undecylimidazolium [Ex. 1A] | ≥ 0.2% by mass | – | ≥ 0.5% by mass | – | – | – | ≥ 0.2 | ≥ 0.5
